According to patent publication US20230414506A1, “PEPTIDE FORMULATIONS AND METHODS OF USE” (REALTA LIFE SCIENCES, INC., priority 2020, published 2023):

Conditions: 2 mg/ml in 20% Intralipid, upon centrifugation

Sequence: IALILEPICCQERAA [PA]
- PA associated with the lipid layer: 60%
- PA remained in the aqueous phase: 40%
